Reported water solubility values for industrial, environmental and drug-like chemicals

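OPERA's authors assembled the values from existing databases and did not measure them anew. The files give a single number for a compound and property, which may rest on several reports. Conditions of the individual experiments are not part of the data. Where a salt, mixture or single isomer is drawn, the source does not say that exactly this form was tested. Unmarked limits or estimates from the upstream databases cannot be ruled out.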

Solubility in water is on a log10 molar scale (set defined at 25 °C).
"–" marks a cell with nothing listed here.

compound	name	log solubility (log10 mol/L)
CC(C)CN(CC(C)C)C(=O)COC(=O)c1ccccc1	2-(Diisobutylamino)-2-oxoethyl benzoate	-3.56
CC(=O)Nc1cccc(C(F)(F)F)c1	Acetamide, N-(3-(trifluoromethyl)phenyl)- (9CI)	-2.87
CCN(CC)c1ccc2nc3ccc(N(CC)CC)cc3[o+]c2c1.O=[N+]([O-])[O-]	3,7-Bis(diethylamino)phenoxazin-5-ium nitrate	-2.45
O=Cc1c(O)ccc2ccccc12	1-Naphthalenecarboxaldehyde, 2-hydroxy-	-3.894
Cc1ccc(Nc2cccc3c2C(=O)c2c(Nc4ccc(C)cc4)cccc2C3=O)cc1	–	-8.145
O=C(O)c1ccco1	2-Furancarboxylic acid	-0.48
CC1(C)S[C@@H]2[C@H](NC(=O)[C@H](NC(=O)N3CCN(S(C)(=O)=O)C3=O)c3ccccc3)C(=O)N2[C@H]1C(=O)O	Mezlocillin	-3.059
CCNC(=O)Nc1c(C)n(C)n(-c2ccccc2)c1=O	–	-1.825
CCN(CCO)c1ccc(N=Nc2ccc([N+](=O)[O-])cc2)cc1	C.I. Disperse Red 1	-6.29
Clc1cc(Cl)c(Oc2ccccc2Cl)cc1Cl	–	-7
CCCC(=O)CC(=O)C(=O)O	2,4-Dioxoheptanoic acid	-0.619
CC(C)(O)c1cccc(C(C)(C)O)c1	–	-1.83
CC(SC(=O)c1cccs1)C(=O)NCC(=O)O (stereo unspecified)	Stepronin	-3.112
O=c1c2ccccc2[nH]c2cc3c(=O)c4ccccc4[nH]c3cc12	5,12-Dihydroquino[2,3-b]acridine-7,14-dione	-7.482
N#CCC(=O)Nc1ccccc1Cl	N-(2-chlorophenyl)-2-cyanoacetamide	-2.298
C=CC1=C(C)c2cc3[nH]c(cc4nc(cc5[nH]c(cc1n2)c(C)c5CCC(=O)O)C(CCC(=O)O)=C4C)c(C)c3C=C	Protoporphyrin	-3.52
CC(=O)Oc1ccccc1[N+](=O)[O-]	Acetic acid, 2-nitrophenyl ester	-2.186
CCCCCCCCCCCCOC(=O)CCCCCCCC	Dodecyl nonan-1-oate	-8.128
C=CCOC(=O)C(=C)C	Allyl methacrylate	-1.767
COC1=CCC2=C(CCC3C2CCC2(C)C(=O)CCC32)C1 (stereo unspecified)	3-Methoxyestra-2,5(10)-dien-17-one	-4.98
Nc1cccc2c(O)c(S(=O)(=O)O)ccc12	2-Naphthalenesulfonic acid, 5-amino-1-hydroxy-	-2.318
FC1CC(F)(F)C(F)(F)C1(F)F (stereo unspecified)	1H,1H,2H-Perfluorocyclopentane	-2.437
Cc1cc2c(c(C3CCCCC3)c1)OP(O)Oc1c(cc(C)cc1C1CCCCC1)C2	–	-6.617
CNC(=O)c1ccccc1	N-Methylbenzamide	-0.921
CS(=O)(=O)c1ccc(C(=O)O)c([N+](=O)[O-])c1	4-Mesyl-2-nitrobenzoic acid	-1.753
CCCN(CCC)C(=O)CCC(=O)OCC	Succinamic acid, N,N-dipropyl-, ethyl ester	-1.096
CC(C)=CC1CC(C)CCO1 (stereo unspecified)	4-Methyl-2-(2-methylprop-1-en-1-yl)tetrahydro-2H-pyran	-2.224
CC(=O)OC[C@@H](OC(C)=O)[C@H]1OC(OC(C)=O)[C@H](OC(C)=O)[C@H]1OC(C)=O (stereo partly drawn)	D-Glucofuranose pentaacetate	-2.662
NC(=O)N(CCO)/N=C/C=C/c1ccc([N+](=O)[O-])o1	–	-3.11
CO[Si](CCCCCC[Si](OC)(OC)OC)(OC)OC	2,11-Dioxa-3,10-disiladodecane, 3,3,10,10-tetramethoxy-	-2.793
Nc1ccc([N+](=O)[O-])cc1C(=O)O	Benzoic acid, 2-amino-5-nitro-	-2.26
COC(=O)[C@H]1O[C@H](OC)[C@H](O)[C@@H](O)[C@H]1O	Methyl alpha-D-galactopyranosiduronic acid methyl ester	-0.264

The first 2 entries again:

compound	name	log solubility (log10 mol/L)
CC(C)CN(CC(C)C)C(=O)COC(=O)c1ccccc1	2-(Diisobutylamino)-2-oxoethyl benzoate	-3.56
CC(=O)Nc1cccc(C(F)(F)F)c1	Acetamide, N-(3-(trifluoromethyl)phenyl)- (9CI)	-2.87

Values as listed in the OPERA 2.9 repository of K. Mansouri.